Reference: patent publication US20110190218A1 (KARLSRUHE INSTITUTE OF TECHNOLOGY, published 2011)

What was measured:
[1] = target: T1, Raf-1 (human); test: GST pull-down (15 µg GST fusion, 400 µg 22Rv.1 lysate), immunoblot
T1 construct: also called c-Raf

[2] = target: T2, Rb (human, UniProt P06400 2-928); test: as above
T2 construct: also called retinoblastoma protein
T2 sequence (looked up): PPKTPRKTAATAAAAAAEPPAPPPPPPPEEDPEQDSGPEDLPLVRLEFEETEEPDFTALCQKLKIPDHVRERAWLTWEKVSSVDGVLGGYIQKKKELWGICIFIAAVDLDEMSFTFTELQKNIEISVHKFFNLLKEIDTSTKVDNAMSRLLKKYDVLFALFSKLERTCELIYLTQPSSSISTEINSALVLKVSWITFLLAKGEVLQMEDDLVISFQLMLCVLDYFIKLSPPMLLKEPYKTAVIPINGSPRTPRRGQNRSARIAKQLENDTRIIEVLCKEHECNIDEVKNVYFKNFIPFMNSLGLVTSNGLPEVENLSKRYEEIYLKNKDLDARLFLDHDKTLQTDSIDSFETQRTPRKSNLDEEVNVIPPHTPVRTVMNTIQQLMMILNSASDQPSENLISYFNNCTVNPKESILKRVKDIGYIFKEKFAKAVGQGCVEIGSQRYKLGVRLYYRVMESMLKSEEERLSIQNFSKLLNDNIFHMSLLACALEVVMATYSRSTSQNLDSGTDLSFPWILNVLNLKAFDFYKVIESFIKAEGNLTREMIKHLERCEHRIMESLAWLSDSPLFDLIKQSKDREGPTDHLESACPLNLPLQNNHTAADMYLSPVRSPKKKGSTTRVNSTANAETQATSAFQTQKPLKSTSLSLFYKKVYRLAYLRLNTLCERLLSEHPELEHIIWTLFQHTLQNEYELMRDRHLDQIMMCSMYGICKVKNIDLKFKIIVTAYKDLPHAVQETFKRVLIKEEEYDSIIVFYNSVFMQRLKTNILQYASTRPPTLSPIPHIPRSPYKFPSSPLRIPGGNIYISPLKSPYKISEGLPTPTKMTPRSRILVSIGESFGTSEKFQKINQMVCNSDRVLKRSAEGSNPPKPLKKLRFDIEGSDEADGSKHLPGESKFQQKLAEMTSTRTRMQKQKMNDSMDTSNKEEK

[3] = target: T3, androgen receptor (human, UniProt P10275 1-920, limits assumed); test: GST pull-down (15 µg GST fusion, 400 µg 22Rv.1 lysate, vehicle or DHT), immunoblot
T3 construct: also called AR; human AR
T3 sequence (looked up): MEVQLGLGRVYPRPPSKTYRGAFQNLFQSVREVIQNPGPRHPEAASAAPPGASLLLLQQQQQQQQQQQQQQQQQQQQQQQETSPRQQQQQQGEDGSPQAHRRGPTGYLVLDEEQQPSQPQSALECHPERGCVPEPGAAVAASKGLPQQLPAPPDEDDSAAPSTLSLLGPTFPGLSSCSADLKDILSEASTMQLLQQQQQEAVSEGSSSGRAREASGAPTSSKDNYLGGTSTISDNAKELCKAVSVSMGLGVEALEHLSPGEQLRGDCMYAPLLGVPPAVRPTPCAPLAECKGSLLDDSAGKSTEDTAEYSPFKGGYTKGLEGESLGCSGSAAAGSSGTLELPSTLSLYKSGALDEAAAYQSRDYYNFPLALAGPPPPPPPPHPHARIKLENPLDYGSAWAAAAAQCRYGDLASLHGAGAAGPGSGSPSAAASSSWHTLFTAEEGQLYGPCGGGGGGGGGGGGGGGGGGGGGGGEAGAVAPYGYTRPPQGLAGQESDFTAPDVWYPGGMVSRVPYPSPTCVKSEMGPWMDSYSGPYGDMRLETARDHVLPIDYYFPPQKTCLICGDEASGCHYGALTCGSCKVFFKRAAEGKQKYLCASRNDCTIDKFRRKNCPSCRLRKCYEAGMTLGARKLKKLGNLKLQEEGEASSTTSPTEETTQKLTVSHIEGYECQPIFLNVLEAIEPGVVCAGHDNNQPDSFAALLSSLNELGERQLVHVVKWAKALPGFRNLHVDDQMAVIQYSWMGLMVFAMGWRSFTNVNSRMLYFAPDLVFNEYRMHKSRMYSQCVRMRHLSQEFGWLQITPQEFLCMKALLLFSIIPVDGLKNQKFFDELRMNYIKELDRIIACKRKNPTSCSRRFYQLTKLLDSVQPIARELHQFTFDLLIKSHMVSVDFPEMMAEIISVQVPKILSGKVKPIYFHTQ

[4] = target: T4, Bag-1L (in lysates from Bag-1L-transfected cells) (human, UniProt Q99933 1-345); test: GST pull-down from lysates of Bag-1L-transfected cells, immunoblot with Bag-1L specific antibody
T4 construct: Untagged Bag-1L as the soluble partner in the test for dimerization; also called human Bag-1L; p50
T4 sequence: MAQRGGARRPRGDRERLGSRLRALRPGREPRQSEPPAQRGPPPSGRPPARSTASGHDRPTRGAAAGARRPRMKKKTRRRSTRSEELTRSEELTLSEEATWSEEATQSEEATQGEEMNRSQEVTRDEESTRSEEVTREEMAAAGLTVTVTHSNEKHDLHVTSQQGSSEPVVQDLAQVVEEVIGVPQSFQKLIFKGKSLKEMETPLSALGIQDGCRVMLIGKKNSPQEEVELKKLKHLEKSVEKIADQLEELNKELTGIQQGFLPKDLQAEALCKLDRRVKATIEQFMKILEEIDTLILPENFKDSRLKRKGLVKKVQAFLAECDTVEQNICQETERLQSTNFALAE

Measured: binding result

B1: GST-Bag-1L-(202-269) (other)
chain: MSPILGYWKIKGLVQPTRLLLEYLEEKYEEHLYERDEGDKWRNKKFELGLEFPNLPYYIDGDVKLTQSMAIIRYIADKHNMLGGCPKERAEISMLEGAVLDIRYGVSRIAYSKDFETLKVDFLSKLPEMLKMFEDRLCHKTYLNGDHVTHPDFMLYDALDVVLYMDPMCLDAFPKLVCFKKRIEAIPQIDKYLKSSKYIAWPLQGWQATFGGGDHPPKTPLSALGIQDGCRVMLIGKKNSPQEEVELKKLKHLEKSVEKIADQLEELNKELTGIQQGFLPKDLQAE
notes: Bacterially purified GST fusion, 15 µg on glutathione beads in the pull-downs
no binding: [1] | [2] | [3] | [4]
